ChEMBL document CHEMBL4396916, “Novel potent substituted 4-amino-2-thiopyrimidines as dual VEGFR-2 and BRAF kinase inhibitors” (Eur J Med Chem, 2019)

Assays:
[1] = organism: Homo sapiens; assay: Selectivity ratio of IC50 for RAF1 (unknown origin) to IC50 for human wild type BRAF
[2] = organism: Homo sapiens; assay: Selectivity ratio of IC50 for c-kit (unknown origin) to IC50 for human wild type BRAF
[3] = organism: Homo sapiens; assay: Selectivity ratio of IC50 for TIE2 (unknown origin) to IC50 for human wild type BRAF
[4] = organism: Homo sapiens; assay: Selectivity ratio of IC50 for FGFR1 (unknown origin) to IC50 for human wild type BRAF
[5] = organism: Homo sapiens; assay: Selectivity ratio of IC50 for PDGFR beta (unknown origin) to IC50 for human wild type BRAF
[6] = organism: Homo sapiens; assay: Selectivity ratio of IC50 for RAF1 (unknown origin) to IC50 for human N-terminal GST tagged VEGFR-2 expressed in baculovirus infected Sf9 cells
[7] = organism: Homo sapiens; assay: Selectivity ratio of IC50 for c-kit (unknown origin) to IC50 for human N-terminal GST tagged VEGFR-2 expressed in baculovirus infected Sf9 cells
[8] = organism: Homo sapiens; assay: Selectivity ratio of IC50 for TIE2 (unknown origin) to IC50 for human N-terminal GST tagged VEGFR-2 expressed in baculovirus infected Sf9 cells
[9] = organism: Homo sapiens; assay: Selectivity ratio of IC50 for FGFR1 (unknown origin) to IC50 for human N-terminal GST tagged VEGFR-2 expressed in baculovirus infected Sf9 cells
[10] = organism: Homo sapiens; assay: Selectivity ratio of IC50 for PDGFR beta (unknown origin) to IC50 for human N-terminal GST tagged VEGFR-2 expressed in baculovirus infected Sf9 cells

Measured: Ratio IC50

CCOC(=O)c1ccc(Nc2ccnc(SCC(=O)c3ccc(C#N)cc3)n2)cc1
1.5 to 3: all assays above
